# Test results from ChEMBL document CHEMBL3817780, “Structure-Based Design of 1,4-Dibenzoylpiperazines as β-Catenin/B-Cell Lymphoma 9 Protein-Protein Interaction Inhibitors” (ACS Med Chem Lett, 2016).
# Chains of the proteins cited; added tags and fusions are not shown.
# UniProt P35222, whole entry: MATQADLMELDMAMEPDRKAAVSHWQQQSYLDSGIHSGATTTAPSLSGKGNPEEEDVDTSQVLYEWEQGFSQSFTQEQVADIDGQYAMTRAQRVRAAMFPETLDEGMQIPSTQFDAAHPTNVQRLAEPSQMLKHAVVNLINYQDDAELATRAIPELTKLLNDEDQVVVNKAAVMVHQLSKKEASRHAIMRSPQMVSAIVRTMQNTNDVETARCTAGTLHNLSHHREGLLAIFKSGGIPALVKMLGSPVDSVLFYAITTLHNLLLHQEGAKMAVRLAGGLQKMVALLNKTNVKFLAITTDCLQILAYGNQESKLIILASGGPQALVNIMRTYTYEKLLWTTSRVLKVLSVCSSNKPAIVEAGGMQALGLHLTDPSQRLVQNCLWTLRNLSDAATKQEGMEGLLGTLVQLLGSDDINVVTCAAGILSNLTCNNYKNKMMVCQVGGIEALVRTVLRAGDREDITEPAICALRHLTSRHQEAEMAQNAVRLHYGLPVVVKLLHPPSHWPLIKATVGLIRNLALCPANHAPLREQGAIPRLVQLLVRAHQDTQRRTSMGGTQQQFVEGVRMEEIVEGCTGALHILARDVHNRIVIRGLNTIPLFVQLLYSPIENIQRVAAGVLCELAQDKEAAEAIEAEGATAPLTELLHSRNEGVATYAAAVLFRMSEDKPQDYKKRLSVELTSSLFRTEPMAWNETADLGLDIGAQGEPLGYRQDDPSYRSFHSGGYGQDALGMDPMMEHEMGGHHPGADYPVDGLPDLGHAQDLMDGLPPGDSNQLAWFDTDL
# How the values were obtained:
# [1] = target: beta-catenin-B-cell lymphoma 9 protein complex (Homo sapiens, UniProt P35222); assay: Competitive inhibition of wild type beta-catenin (unknown origin) expressed in Escherichia coli BL21 DE3 interaction with N-terminally biotinylated human BCL9 (350 to 375 residues) by alpha screen assay
# In short: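 Competitive AlphaScreen binding assays run in parallel against wild-type β-catenin, one with the BCL9 partner and one with the E-cadherin partner; data given as mean ± standard deviation, n = 3.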
# Homo sapiens = species on record: Homo sapiens; assay: Selectivity ratio of Ki for wild type beta-catenin (unknown origin)/ N-terminally biotinylated human BCL9 (350 to 375 residues) interaction to Ki for wild type beta-catenin (unknown origin)/N-terminally biotinylated human E-cadherin (824 to 887 residues) interaction
Ki [1] [µM],Ratio Ki (Homo sapiens),Compound
37,–,CC1CCC(c2cc(C(=O)N3CCN(C(=O)c4cc(F)cc(N5CCNCC5)c4)CC3)ccc2O[C@H]2CCNC2)CC1 (some centres not stated)
–,98,Cl.Cl.O=C(c1cc(F)cc(N2CCNCC2)c1)N1CCN(C(=O)c2ccc(O[C@H]3CCNC3)c(C3CCCCC3)c2)CC1
